Experimental data: patent US7745575B1 (Cellpep Pharma Inc., priority 2004, dated 2010)

The chains behind the UniProt entries cited, without tags or fusion partners.
UniProt P16389, whole entry: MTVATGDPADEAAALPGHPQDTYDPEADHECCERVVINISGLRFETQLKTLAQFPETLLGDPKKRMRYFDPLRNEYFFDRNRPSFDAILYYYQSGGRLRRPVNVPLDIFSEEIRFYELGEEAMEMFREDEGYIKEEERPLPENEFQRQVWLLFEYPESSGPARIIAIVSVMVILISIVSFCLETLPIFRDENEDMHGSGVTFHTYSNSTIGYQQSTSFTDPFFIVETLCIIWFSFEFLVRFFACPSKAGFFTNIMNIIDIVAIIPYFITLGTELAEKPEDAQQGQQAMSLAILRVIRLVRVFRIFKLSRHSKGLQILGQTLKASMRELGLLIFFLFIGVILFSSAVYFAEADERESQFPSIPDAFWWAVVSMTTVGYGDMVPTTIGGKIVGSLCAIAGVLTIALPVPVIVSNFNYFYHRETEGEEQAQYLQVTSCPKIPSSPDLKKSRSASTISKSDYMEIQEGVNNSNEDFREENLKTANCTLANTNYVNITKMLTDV

Target: hKv1.2 (Homo sapiens, UniProt P16389)
Test: patch-clamp whole-cell recording, K+ current block
Assay type: cell-based
Procedure: Electrophysiological experiments were carried out at 22-24° C. using the patch-clamp whole-cell recording mode. Cells were bathed with mammalian Ringer's solution (in mM): 160 NaCl, 4.5 KCl, 2 CaCl2, 1 MgCl2, and 10 HEPES (pH 7.4 with NaOH), with an osmolarity of 290-320 mOsm. […] A syringe-driven perfusion device was used to exchange the external recording bath solution. Two internal pipette solutions were used, one for measuring voltage-gated K^+ currents that contained (in mM): 155 KF, 2 MgCl2, 10 HEPES, and 10 EGTA (pH 7.2 with KOH), with an osmolarity of 290-320 mOsm and another for measuring Ca^2+-activated K^+ currents that contained (in mM): 135 K-aspartate, 8.7 CaCl2, 2 MgCl2, 10 EGTA, 10 HEPES (pH 7.2 with KOH), with an osmolarity of 290-320 mOsm. A free [Ca^2+]i of 1 μM was calculated. All currents through voltage-gated K^+ channels were elicited by 200 ms depolarising voltage steps from −80 to +40 mV. […] Membrane currents were measured with an EPC-9 or EPC-10 patch-clamp amplifier (HEKA Elektronik, Lambrecht, Germany) interfaced to a Macintosh computer running acquisition and analysis software (Pulse and PulseFit). When voltage-gated K^+ currents were measured, the capacitive and leak currents were subtracted using a P/10 procedure. […]

CC[C@H](C)[C@@H]1NC(=O)[C@H](CCCCN)NC(=O)[C@@H](NC(=O)[C@H](CCCCN)NC(=O)[C@@H](NC(=O)[C@H](CC(N)=O)NC(=O)[C@@H](NC(=O)[C@@H](NC(=O)[C@@H](NC(=O)CN)C(C)C)[C@@H](C)CC)[C@@H](C)CC)C(C)C)CSSC[C@@H]2NC(=O)[C@H](CCCCN)NC(=O)CNC(=O)[C@H](Cc3ccccc3)NC(=O)[C@H](CCCNC(=N)N)NC(=O)[C@H](CCSC)NC(=O)CNC(=O)[C@H](C)NC(=O)[C@H](CCCCN)NC(=O)[C@H](CCCCN)NC(=O)[C@@H]3CSSC[C@@H](C(=O)N[C@H](C(=O)N4CCC[C@H]4C(=O)N[C@@H](CCCCN)C(=O)O)[C@@H](C)O)NC(=O)[C@H](Cc4c[nH]cn4)NC(=O)[C@H](CSSC[C@H](NC(=O)[C@H](CCC(N)=O)NC(=O)[C@H](CCCNC(=N)N)NC(=O)[C@H](CO)NC1=O)C(=O)N[C@@H](CC(C)C)C(=O)N[C@@H](CCC(=O)O)C(=O)N1CCC[C@H]1C(=O)N3)NC(=O)[C@H](CCCCN)NC(=O)CNC(=O)[C@H](CC(N)=O)NC(=O)[C@H](CCSC)NC2=O [OsK1, reference compound]
activity on Kv1.2 channel (in words): potently active
